{"sequences": {"note": "By UniProt entry, the sequences of proteins in these tests, tags left out. Where a name states a change or a piece, a line headed by the entry shows the natural chain unless it says otherwise.", "UniProt P41145": "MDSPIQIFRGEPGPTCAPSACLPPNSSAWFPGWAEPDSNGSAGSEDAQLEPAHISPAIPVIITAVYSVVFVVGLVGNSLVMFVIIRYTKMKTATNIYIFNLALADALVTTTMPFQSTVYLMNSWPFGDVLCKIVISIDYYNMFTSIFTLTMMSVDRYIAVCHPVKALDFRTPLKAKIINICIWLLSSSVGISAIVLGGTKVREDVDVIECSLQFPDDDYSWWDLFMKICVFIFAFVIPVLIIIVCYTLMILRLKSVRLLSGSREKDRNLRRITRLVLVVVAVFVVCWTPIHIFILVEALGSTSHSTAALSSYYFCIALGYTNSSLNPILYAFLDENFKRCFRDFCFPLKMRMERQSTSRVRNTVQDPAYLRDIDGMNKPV"}, "source": "paper PMC8534029", "about": "(Cells, 2021)", "target": "human KOR (CHO cell membranes) (Homo sapiens, UniProt P41145)", "experiment": "[3H]diprenorphine competition on membranes", "conditions": "1.0 nM [3H]diprenorphine, 50 mM Tris-HCl, 5 mM MgCl2, 1 mM EGTA, pH 7.4, 25 °C; no OT; orthosteric"}
{"substance": "diprenorphine", "values": [{"measurement": "LogIC50 (M) / Agonist", "result": "−8.52 ± 0.06", "unit": "log M"}, {"measurement": "LogKi (M) / Agonist", "result": "−8.86 ± 0.06", "unit": "log M"}]}
